Marks after values point to notes of the source that are not given here.
Assays:
[1] = ID 1.5 mm
[2] = system: Yucatan pigs; assay: Tissue irritancy after injection of sildenafil solutions in Yucatan pigs; format: in vivo; conditions: 24 hr after injection

With sildenafil acetate the Tmax [1] was 12.6 min, the Clearance ([1]; dose normalized) was 41.614 mL/min/kg and the AUC ([1]; up to last sampling time point) was 114.97 ng·h/mL. The Bioavailability ([1]; versus IV mesylate) was 59.21^c %, the Cmax ([1]; ~5 mg sildenafil, average) was 95.35 ng/mL and the “tissue irritancy (in words)” value [2] was “tissue necrosis and scaring observed in some pigs”.
With sildenafil mesylate the “tissue irritancy (in words)” value [2] was “only negligible or slight level of erythema and edema”.

Source: US20060035905A1, “Formulations of phosphodiesterase 5 inhibitors and methods of use” (Becton, Dickinson and Company, priority 2004, published 2006)
